The values below come from patent US9034850B2, “Gonadotropin releasing hormone receptor antagonist, preparation method thereof and pharmaceutical composition comprising the same” (SK Chemicals Co., Ltd., priority 2009, dated 2015).

Protein sequences, listed by entry. Tags and fused reporters are not part of them.
UniProt P30968, whole entry: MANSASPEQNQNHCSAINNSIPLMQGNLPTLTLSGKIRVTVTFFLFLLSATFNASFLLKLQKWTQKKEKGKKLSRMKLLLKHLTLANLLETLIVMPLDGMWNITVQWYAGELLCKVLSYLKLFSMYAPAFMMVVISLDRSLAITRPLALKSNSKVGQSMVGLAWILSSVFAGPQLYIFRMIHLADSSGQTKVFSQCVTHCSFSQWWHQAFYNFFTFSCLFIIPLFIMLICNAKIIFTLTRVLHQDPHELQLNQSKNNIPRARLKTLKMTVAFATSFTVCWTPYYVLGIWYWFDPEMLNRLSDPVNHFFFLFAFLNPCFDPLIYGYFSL

One series concerns the target GnRH receptor (Homo sapiens, UniProt P30968). Kind of series: GnRH-R reporter assay (NFAT promoter luciferase, leuprolide acetate as ligand). To be noted: read-out: IC50 Value, HEK293 transformed with pcDNA3.1/GnRH receptor and pGL4/NFAT promoter. A general note: A reporter such as luciferase makes a cellular process visible.
Series [1] in a line: Assay for oral absorptivity (plasma drug level after oral administration). To be noted: SD rats. Here is the method: 1) Preparation of Specimen for Measuring Drug Level upon Oral Administration
For use as experimental animals, SD rats (Charles River Japan, male, 8 weeks old, 220-270 g) was starved overnight. Test compounds (25˜30 mg) were dissolved in polyethyleneglycol 400 (PEG400) 20%, and a 0.5% carboxy methyl cellulose (CMC) solution 80% to produce solutions of 4 μmmol/mL. The rats were weighed. The test compounds were orally administered at a dose of 40 μmol/kg (ca. 25˜30 mg/kg) to the rats using a sonde and a 3 mL syringe. Blood samples were taken 20, 40, 60, 120, 240, and 360 min after the oral administration. Plasmas separated from the blood samples by centrifugation were used as specimens.
2) Measurement of Drug Level
0.09 mL of methanol was added to 0.03 mL of the plasma obtained in 1), followed by vortexing to precipitate and remove proteins. 0.005 mL of the supernatant was injected to LC/MS/MS.
Apparatus: Shiseido Nanospace SI-2
Column: Shiseido capcelpack C18, MG3, 5 um, 2.0 mm I.D×50 mm
Mobile Phase: a mixture of 3:7 10 mM ammonium formate (pH 4.0): acetonitrile.

For orientation: Cmax means the peak of the concentration-time curve. Regarding `COc1cccc(-c2c(C)n(Cc3c(F)cccc3C(F)(F)F)c(=O)n(C[C@H](NCCCC(=O)O)c3ccccc3)c2=O)c1F`, the IC50 at GnRH receptor came out at 1.6 nM. In addition, the “Cmax” value in series [1] (oral, 40 μmol/kg, plasma) turned out to be 0.4429 µg/mL. In series [1] (plasma drug level after oral administration), this molecule returned an AUC8 hr of 0.7576 µg·h/mL.
